Assays:
[1] = tested on: peripheral blood mononuclear cells (PBMC); experiment: Histamine release in peripheral blood mononuclear cells (ELISA); assay type: cell-based, human
Description: The effect of the Peptide SEQ ID No. 2 on histamine release was tested in vitro in peripheral blood mononuclear cells (PBMC).
PBMC from four different subjects were tested. Leukocyte suspensions were incubated with different concentrations of the peptide with SEQ ID No. 2 in a range from 3 μM to 10 mM. Human anti-IgE antibody and buffer only were used as positive and negative controls, respectively. The amount of histamine released was quantitated with ELISA (IBL, catalogue number RE 59221). The assay sensitivity is 2.4 ng/mL.
The concentration range from 3 μM to 10 mM was elected to evaluate the histamine release of the peptide at levels obtained upon i.v. injection. Thus, a concentration of 30 mg/kg corresponds immediately after injection to ˜38 μM, assuming a distribution volume of 400 ml per kg of tissue. The peptide is known to be distributed freely in the extracellular fluids. Thus, the highest concentration of the peptide at 10 mM is thus in the order of roughly 100 times higher than the highest concentration in the extracellular fluids.

carboplatin treated mice = details: mouse, in vivo
Text: The model used for the in vivo experiments was reported previously (Akahori et al. (1996) Stem Cells 14:678-689, Akahori et al. (1996) Br. J. Haematol. 94:722-728, Shibuya et al. (1998) Blood 91:37-45, Andrews et al. (1996) Stem Cells 14:661-677). Improvements and modifications that were introduced are indicated below.
Each test group (PBS, TPO, or TPO-Rp) was given as a single daily dose administered by intraperitoneal injection. Daily doses were begun on day 0 and continued throughout the duration of the experimental period (day 10). Two i.p. injections of carboplatin 90 mg/kg each (PBS for group 11) were given on days 0 and 4.
Blood collections were taken on days −0 (basal), 8, 11, 14, and 18. Blood was obtained by sampling from the tail of mice (8 week old male […] mice), followed by cauterisation. A volume of 80 μl of blood from each mouse was collected into a heparinized blood collection tube. The 80 μl of blood was then mixed with 160 μl of saline containing sufficient EDTA (0.225%) to provide for anticoagulation.
[…] Carboplatin is used to induce thrombocytopenia. […]

[2] = 28-day intravenous toxicity study in rats; assay type: in vivo, Crl:CD(SD)IGS BR rats
Description: Recovery from effects in the high dose group was assessed via a subsequent 28-day recovery period. […] The vehicle and 45 mg/kg/day groups each consisted of 15 males and 15 females, the 5 mg/kg/day and 15 mg/kg/day groups each consisted of 10 males and 10 females, and the three toxicokinetic groups each consisted of 9 males and 9 females.
Detailed physical examinations were performed and individual body weights and food consumption were recorded weekly. Clinical pathology parameters (haematology, serum chemistry and urinalysis) were evaluated prior to the initiation of dosing, at the midpoint of the treatment period and at the primary-and recovery necropsies. Bone marrow smears were collected during the pretest period and at the scheduled necropsies. Serum was collected for antibody determinations at the primary necropsy. Ophthalmic examinations were conducted prior to the initiation of dosing, during study week 3 and during the recovery period, study week 7. Complete necropsies were performed on all animals. Selected organs were weighed at the primary and recovery necropsies. Selected tissues collected at the primary necropsy were examined microscopically.
Blood samples were collected for determination of plasma test article levels on days 0, 6, 14, 20 and 27 from a separate set of animals assigned to the toxicokinetic portion of the study.

[3] = Ex vivo degradation of 125I-labelled peptides in pooled rat plasma; assay type: in vitro ADME; details: 37° C., ~1 μM labelled peptide
Description: (§1) The degradation profiles of wild type TPO-Rp, TPO-Rp 1-18 (R9A, R11A, SEQ ID No. 2) and TPO-Rp 4-18 (R9A, R11A, SEQ ID No. 4) were studied in human serum (a pool of serum from 200 patients) and rat plasma (a pool of plasma from 50 animals). In order to enable detection of degradation ^125I-labelled peptides (labelled at Y14) have been used. Only the intact peptide and labelled degradation products are detected by HPLC analysis. Therefore, such analysis performed at different points clearly detects when a given peptide is degraded. Incubation was performed at 37° C. The concentration of labelled peptide was ˜1 μM in these studies.

[4] = Peptide storage stability by HPLC; assay type: physicochemical; details: 1 mM solutions in water, saline or saline with 0.1% human albumin; −20° C., 4° C. and room temperature; 1, 3 and 4 weeks
Description: The HPLC method used was based on UV detection of the sample during elution from a reverse phase column system, C8 MICROSORB MV column (Rainin Instrument Company). The two buffer system begins with 9.5% 5 mM TFA (buffer A) and 5% ACN (buffer B). […] The sample elution period is followed by a brief column wash with an increase of buffer B to 90%.
The stability of wild type TPO-Rp, TPO-Rp 1-18 (R9A, R11A, SEQ ID No. 2) and TPO 4-18 (R9A, R11A, SEQ ID No. 4) was addressed by HPLC analysis after storage of the three peptides at the following three temperatures: room temperature (˜20° C.), 4° C. and −20° C. The peptides were stored as either 1 mg of dry powder or as a 1 mM solution in water, with no excipients in either condition. After establishing the HPLC elution profiles of these three peptides on day 0 the peptide, HPLC elution profiles were re-tested on days two, nine and fourteen.

[5] = Ex vivo degradation of 125I-labelled peptides in pooled human serum; assay type: in vitro ADME; details: 37° C.
Description: as §1

[6] = 28-day intravenous toxicity study in monkeys
in vivo = details: both, cynomolgus monkey
[7] = Detection of IgG antibodies against the peptide in monkey serum; assay type: in vivo, cynomolgus monkeys; details: 32 monkey serum samples from Example 9
Description: (§2) Serum samples from monkeys and rats were analysed to detect IgG presence in cynomolgus monkeys and rats which were tested in Examples 8 and 9. In none of the 32 monkey serum samples and the 80 rat serum samples could antibodies against the Peptide with SEQ ID No. 2 be detected.

[8] = In vivo degradation in rats after intravenous bolus administration; details: rat, blood, 3 mg/kg intravenous bolus, read-out: calculated half-life in blood
[9] = Detection of IgG antibodies against the peptide in rat serum; assay type: in vivo, rats; details: 80 rat serum samples from Example 8
Description: as §2

[10] = 5, 15 and 45 mg/kg/day i.v., 28 days, rats
[11] = 5, 15 and 30 mg/kg/day i.v., 28 days, monkeys

Question: Which histamine release ([1]; peptide 3.3 mM or lower, human PBMC) does the source give for CC(C)C[C@H](NC(=O)[C@H](CCC(N)=O)NC(=O)[C@H](CC(C)C)NC(=O)[C@H](CCCNC(=N)N)NC(=O)[C@H](Cc1ccc(O)cc1)NC(=O)[C@H](CCCNC(=N)N)NC(=O)[C@H](CO)NC(=O)[C@H](C)NC(=O)[C@@H]1CCCN1C(=O)[C@H](C)NC(=O)[C@H](CC(C)C)NC(=O)[C@H](CCC(=O)O)NC(=O)[C@H](CC(C)C)NC(=O)[C@@H](NC(=O)CNC(=O)CNC(=O)[C@H](CCCNC(=N)N)NC(=O)[C@H](C)N)[C@@H](C)O)C(=O)O [SEQ ID No. 2] here?
Answer: The histamine release was “no effect on histamine release”.

Question: What about the “histamine release, fold lower than the positive control (anti-IgE)” value ([1]; peptide 10 mM) of the same molecule?
Answer: Its value is about 10 fold.

Question: And the histamine release ([1]; peptide 10 mM, PBMC)?
Answer: The histamine release was 15 ng/mL.

Question: What about the “effects on other blood components” value (carboplatin treated mice) of the same molecule?
Answer: Its value is “None of the peptides used”.

Question: And the “Survival, body weights, food consumption, clinical pathology parameters, organ weights and bone marrow cytology” value [2, 10]?
Answer: Its value is “unaffected”.

Question: What about the “ophthalmological, macroscopic or microscopic findings” value [2, 10] of the same molecule?
Answer: Its value is “no peptide-related ophthalmological, macroscopic or microscopic findings”.

Question: And the “no-observed-effect-level (NOEL)” value ([2]; female rats, 28 days i.v.)?
Answer: Its value is 45 mg/kg/day.

Question: What about the tolerability ([2]; male and female rats, 28 days i.v.) of the same molecule?
Answer: Its tolerability is “well tolerated”.

Question: What about the half-life [3] of the same molecule?
Answer: Its half-life is about 1.1 min.

Question: And the “degradation in HPLC studies” value [4]?
Answer: Its value is “no sign of degradation”.

Question: And the “improved stability over the wild type oligopeptide” value [5]?
Answer: The value was “five-fold”.

Question: What about the half-life ([5]; human, ~1 μM labelled peptide) of the same molecule?
Answer: The half-life was about 9.6 min.

Question: What about the “Body weights, clinical pathology parameters, physiologic parameters, electrocardiographic evaluations and organ weights” value [6, 11] of the same molecule?
Answer: Its value is “unaffected”.

Question: What about the deaths [6, 11] of the same molecule?
Answer: The deaths was “no deaths”.

Question: And the “ophthalmological, macroscopic or microscopic findings” value [6, 11]?
Answer: Its value is “no test peptide-related ophthalmological, macroscopic or microscopic findings”.

Question: What about the “duration of clinical signs” value ([6]; after i.v. administration, monkeys) of the same molecule?
Answer: The value was “no longer evident one hour after administration”.

Question: What about the “facial flushing (incidence)” value ([6]; females, 5 mg/kg/day) of the same molecule?
Answer: The value was 2/3.

Question: And the “facial flushing (incidence)” value ([6]; females, 15 mg/kg/day)?
Answer: Its value is 3/3.

Question: And the “flushing of body surfaces (incidence)” value ([6]; females, 15 mg/kg/day)?
Answer: The value was 2/3.

Question: And the “salivation (incidence)” value ([6]; females, 15 mg/kg/day)?
Answer: Its value is 1/3.

Question: What about the “decreased muscle tone (incidence)” value ([6]; females, 30 mg/kg/day) of the same molecule?
Answer: The value was 1/5.

Question: What about the “emesis (incidence)” value ([6]; females, 30 mg/kg/day) of the same molecule?
Answer: The value was 2/5.

Question: What about the “facial flushing (incidence)” value ([6]; females, 30 mg/kg/day) of the same molecule?
Answer: Its value is 5/5.

Question: What about the “flushing of body surfaces (incidence)” value ([6]; females, 30 mg/kg/day) of the same molecule?
Answer: Its value is 4/5.

Question: And the “salivation (incidence)” value ([6]; females, 30 mg/kg/day)?
Answer: Its value is 4/5.

Question: And the tolerability ([6]; male and female monkeys, 28 days, doses up to 30 mg/kg/day)?
Answer: The tolerability was “well tolerated”.

Question: What about the “no-observed-effect level (NOEL)” value ([6]; male monkeys, based upon facial flushing) of the same molecule?
Answer: The value was 5 mg/kg/day.

Question: And the compound-related clinical signs ([6]; males, 5 mg/kg/day)?
Answer: Its compound-related clinical signs is “no compound-related clinical signs”.

Question: And the “facial flushing (incidence)” value ([6]; males, 15 mg/kg/day)?
Answer: Its value is 3/3.

Question: And the “salivation (incidence)” value ([6]; males, 15 mg/kg/day)?
Answer: The value was 1/3.

Question: What about the “decreased muscle tone (incidence)” value ([6]; males, 30 mg/kg/day) of the same molecule?
Answer: The value was 1/5.

Question: What about the “emesis (incidence)” value ([6]; males, 30 mg/kg/day) of the same molecule?
Answer: Its value is 1/5.

Question: And the “facial flushing (incidence)” value ([6]; males, 30 mg/kg/day)?
Answer: Its value is 4/5.

Question: What about the “flushing of body surfaces (incidence)” value ([6]; males, 30 mg/kg/day) of the same molecule?
Answer: The value was 3/5.

Question: And the “salivation (incidence)” value ([6]; males, 30 mg/kg/day)?
Answer: Its value is 3/5.

Question: And the NOAEL at 28 days (in vivo)?
Answer: Its NOAEL at 28 days is 30 mg/kg/day.

Question: What about the “serum samples with antibodies against the peptide” value [7] of the same molecule?
Answer: Its value is “none”.

Question: And the half-life [8]?
Answer: Its half-life is 7.3 min.

Question: What about the “serum samples with antibodies against the peptide” value [9] of the same molecule?
Answer: The value was “none”.
